The record followed here is patent US20170217976A1, “6-(AMINO ACID)-MORPHINAN DERIVATIVES IN COMBINATION WITH PERMEATION […] FOR USE AS AN ORALLY, […], TRA[…] NASALLY AD[…]” (C[…], priority 2014, published 2017).

Protein sequences, listed by entry. Tags and fused reporters are not part of them. Lines headed by an entry give the natural chain unless they say otherwise; changes in a name come on top.
UniProt P41144: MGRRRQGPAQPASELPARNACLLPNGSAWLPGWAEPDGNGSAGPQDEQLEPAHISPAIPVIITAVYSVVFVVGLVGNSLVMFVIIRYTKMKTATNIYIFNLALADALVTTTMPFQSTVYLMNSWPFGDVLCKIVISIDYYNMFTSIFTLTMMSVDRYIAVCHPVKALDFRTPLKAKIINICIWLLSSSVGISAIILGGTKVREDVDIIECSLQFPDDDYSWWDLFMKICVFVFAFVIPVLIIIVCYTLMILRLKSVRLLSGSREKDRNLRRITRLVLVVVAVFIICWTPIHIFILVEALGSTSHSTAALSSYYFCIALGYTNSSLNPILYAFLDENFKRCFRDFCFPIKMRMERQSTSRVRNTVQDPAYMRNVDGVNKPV
UniProt P33535, whole entry: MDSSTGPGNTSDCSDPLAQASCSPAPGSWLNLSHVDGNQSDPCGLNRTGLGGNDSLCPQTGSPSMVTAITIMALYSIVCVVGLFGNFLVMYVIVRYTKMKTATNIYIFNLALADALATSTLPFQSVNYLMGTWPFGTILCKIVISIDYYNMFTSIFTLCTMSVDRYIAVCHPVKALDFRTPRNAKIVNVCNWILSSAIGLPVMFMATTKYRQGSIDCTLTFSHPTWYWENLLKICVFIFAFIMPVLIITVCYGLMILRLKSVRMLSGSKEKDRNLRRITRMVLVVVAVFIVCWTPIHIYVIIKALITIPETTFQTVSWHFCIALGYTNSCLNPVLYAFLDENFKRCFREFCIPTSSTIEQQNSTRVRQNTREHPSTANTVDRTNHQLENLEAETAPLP

The target in experiment [1] is T1, KOR (Cavia porcellus, UniProt P41144).
T1 construct: from tissue
Put plainly: Opioid receptor binding, KOR, guinea pig brain membranes. As to conditions: in vitro binding assay.

Experiment [2] addresses T2, MOR (Rattus norvegicus, UniProt P33535).
T2 construct: from tissue
Put plainly: Opioid receptor binding, MOR, rat brain membranes. As to conditions: Table 1-4, rat brain membranes.

Turning to `CCO.CO[C@@]12CC[C@@H](NCC(=O)O)[C@@H]3Oc4c(O)ccc5c4[C@@]31CCN(C)[C@@H]2C5.Cl.Cl.O` [HS731, 2-[(4,5α-EPOXY-3-HYDROXY-14β-METHOXY-17-METHYLMORPHINAN-6β-YL)AMINO]ACETIC ACID DIHYDROCHLORIDE HYDRATE ETHANOLATE], the Ki in experiment [1] was 44.8 nM. That is a double-digit nanomolar value.
On to `CO[C@@]12CC[C@H](NCC(=O)O)[C@@H]3Oc4c(O)ccc5c4[C@@]31CCN(C)[C@@H]2C5` [HS730], for which the inhibition constant (Ki) came to 0.89 nM in experiment [2] and 43.2 nM in experiment [1].
